Values of other authors, collected in patent US6884792B2, “Bretylium compositions and kits and their use in preventing and treating cardiovascular conditions” (priority 1999, dated 2005).

Details: water/octanol, relative to chloride; cited from earlier work

For salicylate, which “organic/aqueous phase distribution constant (K)” value is on record?
The value was “greater than 1000”.
